According to US4908365A, “Benzhydryloxyethylpiperazine derivatives, processes for their preparation and pharmaceutical compositions in which they are present” (priority 1986, dated 1990):

What was measured:
[1] = tested on: mice; experiment: Study of the spontaneous motility (motor activity), photoelectric actimeter; type: in vivo; conditions: mouse, i.p., weak dose
[2] = tested on: histamine; experiment: Antihistaminic activity (histaminic shock, lethal dose of histamine); type: in vivo, guinea-pigs; conditions: guinea-pig, p.o.; 30 min
[3] = tested on: histamine; experiment: Bronchospasm by inhalation of a histamine solution; type: in vivo, guinea-pigs; conditions: guinea-pig, p.o.; 30 min

| SMILES | Motor activity [1] | Histaminic shock ED50 [2] [mg/kg] | Bronchospasm ED50 [3] [mg/kg] |
| --- | --- | --- | --- |
| Cc1ccc(C(OCCN2CCN(CCn3cnc4c3c(=O)n(C)c(=O)n4C)CC2)c2ccccc2)cc1 (centres unmarked) | increase | 0.55 | 0.19 |
| Cn1c(=O)c2c(ncn2CCN2CCN(CCOC(c3ccccc3)c3ccccc3)CC2)n(C)c1=O | – | 2.57 | 0.59 |
